According to article PMC7801690, “Crystal structure of a thermophilic fungal cyanase and its implications on the catalytic mechanism for bioremediation” (Scientific Reports, 2021):

Test system: N#CO
Assay: purified protein
Settings: apparent Km; 0.05 to 3.0 mM potassium cyanate; bicarbonate-dependent

Substance | Km [µM] | kcat [s⁻¹] | kcat/Km [M⁻¹ s⁻¹]
Tl-Cyn (Thermomyces lanuginosus; A148V) | 200 ± 7 | 5720 | 2.93e+07
Tl-Cyn (Thermomyces lanuginosus; E124D) | 210 ± 3 | 5840 | 2.79e+07
Tl-Cyn (Thermomyces lanuginosus; Y34A) | 400 ± 10 | – | 1.2e+08
